Details: measured water solubility of salt compared to documented solubility of salicylic acid / salicylsalicylic acid
Description: Measurement of the water solubility of the test compounds is accomplished by using methods well known to those skilled in the art. […] The total volume of the solution is measured.

Substance: {[Amino(imino)methyl]amino}(dimethylamino)methaniminium salicylate [Example 1]
- times more soluble than the parent acid: 415 times
